Values of other authors, collected in patent US20040234600A1, “Hydromorphone therapy” (priority 1994, published 2004).

Which “onset of action, analgesia occurring” value (orally administered) does the source give for `CN1CC[C@]23c4c5ccc(O)c4OC2C(=O)CC[C@H]3[C@H]1C5` (some centres unmarked) [hydromorphone, 4,5-epoxy-3-hydroxy-17-methylmorphinan-6-one] here?
Its value is “thirty”.

What about the “analgesic action apparent (onset)” value (parenterally administered) of the same compound?
Its value is “fifteen”.
